Chains of the proteins cited; added tags and fusions are not shown.
UniProt P97612, whole entry: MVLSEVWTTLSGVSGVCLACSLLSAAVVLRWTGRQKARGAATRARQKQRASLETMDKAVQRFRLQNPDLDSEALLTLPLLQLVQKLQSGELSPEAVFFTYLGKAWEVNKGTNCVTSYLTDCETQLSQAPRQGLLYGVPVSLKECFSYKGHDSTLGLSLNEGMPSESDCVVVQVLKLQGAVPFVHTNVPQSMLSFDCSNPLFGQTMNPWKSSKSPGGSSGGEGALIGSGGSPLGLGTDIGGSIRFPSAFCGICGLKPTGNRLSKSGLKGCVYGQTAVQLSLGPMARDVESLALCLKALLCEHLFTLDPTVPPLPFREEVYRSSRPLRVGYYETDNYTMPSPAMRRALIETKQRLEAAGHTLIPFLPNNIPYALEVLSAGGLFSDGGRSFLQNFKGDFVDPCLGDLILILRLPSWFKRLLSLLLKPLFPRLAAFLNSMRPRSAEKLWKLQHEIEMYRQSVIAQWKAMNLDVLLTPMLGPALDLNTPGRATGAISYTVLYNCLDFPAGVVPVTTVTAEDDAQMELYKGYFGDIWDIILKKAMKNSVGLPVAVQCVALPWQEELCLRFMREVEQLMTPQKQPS

In ChEMBL document CHEMBL1155875, “Optimization of the central heterocycle of alpha-ketoheterocycle inhibitors of fatty acid amide hydrolase” (J Med Chem, 2008):

Key:
[1] = target: T1, Fatty-acid amide hydrolase 1 (Rattus norvegicus, UniProt P97612); test: Inhibition of rat FAAH expressed in Escherichia coli
[2] = target: T1, Fatty-acid amide hydrolase 1; test: Inhibition of rat FAAH expressed in Escherichia coli at pH 9.0

Row | IC50 [1] [nM] | Ki [2] [nM] | Structure (SMILES)
1 | 80 | – | O=C(CCCCCCc1ccccc1)c1ncc(-c2ccccc2)o1
2 | 8 | – | COC(=O)c1cccc(-c2cnc(C(=O)CCCCCCc3ccccc3)o2)n1
3 | – | 2.5 | O=C(O)c1cccc(-c2nnc(C(=O)CCCCCCc3ccccc3)s2)n1
4 | – | 1 | COC(=O)c1nnc(C(=O)CCCCCCc2ccccc2)s1
